Reference: patent US20200385439A1

Protein sequences, listed by entry. Tags and fused reporters are not part of them. Lines headed by an entry give the natural chain unless they say otherwise; changes in a name come on top.
UniProt P50391: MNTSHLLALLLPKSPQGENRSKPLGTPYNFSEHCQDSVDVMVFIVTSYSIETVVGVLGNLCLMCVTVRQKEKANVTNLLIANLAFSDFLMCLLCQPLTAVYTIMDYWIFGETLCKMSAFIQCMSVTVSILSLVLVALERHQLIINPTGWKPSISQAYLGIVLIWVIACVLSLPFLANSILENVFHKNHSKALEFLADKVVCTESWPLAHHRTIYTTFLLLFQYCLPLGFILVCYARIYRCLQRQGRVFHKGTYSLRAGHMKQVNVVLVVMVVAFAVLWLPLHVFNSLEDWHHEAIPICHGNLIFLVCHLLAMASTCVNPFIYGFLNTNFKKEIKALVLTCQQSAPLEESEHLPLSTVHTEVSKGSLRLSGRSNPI

Biological target: human Y4 receptor (human) (UniProt P50391)
Assay: cell-based or functional assay

Work on “PYY3-36 (from UniProt P10082 31-64) (peptide)” yielded an EC50, cAMP assay (LANCE) on receptor-expressing cells of 137 nM.
